Source: PubChem BioAssay (Broad Institute)
PglD inh: blocks C. jejuni PglD acetyltransferase activity | purified PglD enzyme, DTNB colorimetric CoA detection | inhibition, % at 12.5 µM | 0.098% of 360,000 active; in the data active = inhibition above about 16%, passing the limit was not always enough; inconclusive = no clear call, values can overlap the other calls
MITF TRPM1 HTS: MITF TRPM1 promoter activation in melanoma cells; SK-MEL-5 TRPM1-promoter luciferase, 24 h; % of positive control, neutral wells = 0; 0.75% of 300,000 active; activation, % at 12.5 µM;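 active = mean activation of at least 80% with every replicate also reaching 80%; inconclusive = mean reaches 80% but some replicate falls short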;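 note: 0% = neutral control wells and 100% = parthenolide positive control wells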
miR-122 sensor: miR-122 inhibition in Huh7 cells; activation (reporter increase), % at 12.5 µM; 0.3% of 340,000 active; Huh7 miR-122 Renilla luciferase sensor, 48 h; neutral wells = 0, positive control = 100;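 active = mean replicate activation score at least 90 and every replicate individually at or above 90; inconclusive = only one of the two criteria met; inactive = neither criterion met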;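 note: higher luciferase means less miR-122 activity so hits act as miR-122 inhibitors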
Wnt act: Wnt/beta-catenin pathway activation | 1.2% of 300,000 active | AID 743398 | Wnt/beta-catenin reporter cell assay, activator, plate reader | activation, % at 9.35 µM; in the data active = activation above about 30%, passing the limit was not always enough; inconclusive = no clear call, values can overlap the other calls;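 note: 0% = neutral control wells and 100% = positive control wells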
Yeast UUG start: modulators of yeast start codon fidelity, primary screen, whole organism, S. cerevisiae, single point, plate reader; S. cerevisiae UUG-firefly luciferase reporter, luminescence/redox ratio; activity score, % at 18.7 µM; actives 0.13% (n = 350,000); AID 602363, 2012;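 active = replicate mean at a twofold rise or more, about +100% in these data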;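 also: firefly luciferase made from a UUG start codon reports start codon fidelity; reporter light over untreated wells divided by growth signal over untreated wells; some hits fall short of that in this replicate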
esBAF inh: blocks esBAF chromatin remodeling in mouse ES cells. reporter increase, % at 12.5 µM. Bmi1-luciferase knock-in reporter, 24 h; 100% = twice the neutral-well signal. 2% of 350,000 active; in the data active = activation above about 40%; inconclusive = no clear call, values can overlap the other calls;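 note: 0% = median of the plate's neutral control wells and 100% = double that signal; a rise in the Bmi1 reporter signal indicates esBAF inhibition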
* = called active by the depositor; u = inconclusive; x = not tested or not shown; [ ] = another dose, or the depositor's remark. An excerpt weighted towards active compounds, which were near 2.8% of everything screened.

# | Compound | PglD inh | MITF TRPM1 HTS | miR-122 sensor | Wnt act | Yeast UUG start | esBAF inh
1 | C[C@@H]1CN([C@@H](C)CO)C(=O)c2cc(NS(=O)(=O)c3ccccc3)ccc2O[C@@H]1CN(C)CC1CCCCC1 | -3 | x | -5[16.7 µM] | x | 2 | -2
2 | COC(=O)C[C@@H]1C[C@@H]2c3cc(NS(C)(=O)=O)ccc3O[C@@H]2[C@@H](CO)O1 | -2 | x | -1[16.7 µM] | x | x | -4
3 | COc1cccc(CN2C[C@@H](C)[C@H](OC)CN(C)C(=O)c3cc(NS(=O)(=O)c4cn(C)cn4)ccc3OC[C@H]2C)c1 | 1 | x | x | x | 0 | 1
4 | Cc1noc(C)c1S(=O)(=O)Nc1ccc2c(c1)CC(=O)N([C@@H](C)CO)C[C@H](C)[C@@H](CN(C)Cc1ccc(Oc3ccccc3)cc1)O2 | 0 | x | 6[16.7 µM] | x | 2 | -2
5 | CN(C)C(=O)c1cccc(-c2ccc([C@H]3[C@H]4CN(C(=O)C5CCCC5)CCCCN4[C@H]3CO)cc2)c1 | -1 | x | -25[16.7 µM] | x | -2 | x
6 | COc1ccc(C(=O)/C=C(\C)Nc2ccc3c(c2)OCO3)cc1 | 4 | x | -9 | u | 2 | 62*
7 | COc1ccc(N/C(C)=C/C(=O)c2ccccc2)cc1 | -1 | 120* | -6 | 24 | -20 | x
8 | COc1ccc(CN(C(=O)c2ccc(-c3ccccc3)[nH]2)C(C(=O)NCC2CCCO2)c2ccc(C)o2)cc1 (stereo unspecified) | x | x | 230* | x | -17 | 3
9 | C[C@H]1CN([C@@H](C)CO)C(=O)c2cc(NC(=O)C3CCCCC3)ccc2O[C@H]1CN(C)CC1CC1 | 1 | x | -5[16.7 µM] | x | -9 | 0
10 | CC(C)NC(=O)N(C)C[C@H]1Oc2ncc(-c3cccc(C#N)c3)cc2C(=O)N([C@@H](C)CO)C[C@@H]1C | 0 | x | -4[16.7 µM] | x | -1 | 4

Looked up one by one from the entries so far:
# | Compound | PglD inh | MITF TRPM1 HTS | miR-122 sensor | Wnt act | Yeast UUG start | esBAF inh
8 | COc1ccc(CN(C(=O)c2ccc(-c3ccccc3)[nH]2)C(C(=O)NCC2CCCO2)c2ccc(C)o2)cc1 (stereo unspecified) | x | x | 230* | x | -17 | 3
5 | CN(C)C(=O)c1cccc(-c2ccc([C@H]3[C@H]4CN(C(=O)C5CCCC5)CCCCN4[C@H]3CO)cc2)c1 | -1 | x | -25[16.7 µM] | x | -2 | x

(continued)
# | Compound | PglD inh | MITF TRPM1 HTS | miR-122 sensor | Wnt act | Yeast UUG start | esBAF inh
11 | O=C(NCc1cccc2ccccc12)c1cccs1 | -2 | 51 | 4 | 22 | -3 | 55*
12 | N#C[C@@H]1[C@@H](c2ccc(-c3cccc(F)c3)cc2)[C@H](CO)N1C(=O)NC1CCCC1 | 0 | x | x | x | -1 | 4
13 | C/C(=N\NC(=O)c1cc2c(s1)CCC(C)C2)c1ccncc1 (stereo unspecified) | 5 | 33 | 16 | 20 | -13 | 9
14 | C/C(=N\NC(=O)c1cc2c(s1)CCC(C)C2)c1ccc[nH]1 (stereo unspecified) | 0 | 104* | 8 | u | -20 | 28
15 | C[C@H](CO)N1C[C@H](C)[C@@H](CN(C)C(=O)Nc2cccc3ccccc23)Oc2c(cccc2N(C)C)C1=O | 2 | x | 4[16.7 µM] | x | 30 | 5
16 | Fc1ccc2cc(CCO[C@H]3CCCCO3)ncc2c1 | -9 | 40 | 5 | 32* | -28 | -29
17 | CO[C@H]1CN(C)C(=O)c2ccc(NS(=O)(=O)c3ccccc3Cl)cc2OC[C@H](C)NC[C@H]1C | 1 | x | -5[16.7 µM] | x | -1 | 3
18 | Oc1ccccc1C=NN=C1c2ccccc2-c2ccccc21 | x | 40 | x | u | x | x
19 | C/C(=N/N=C/c1ccccc1O)c1ccccc1O | 2 | 56 | -3 | 44* | -12 | 49
20 | COC(=O)c1cc(C)nc(Nc2nc(C(N)Cc3ccc(Cl)cc3)cs2)n1 (stereo unspecified) | -3 | x | -6 | 641* | -24 | 1

Profiles, looked up by structure. Values in the order: PglD inh, MITF TRPM1 HTS, miR-122 sensor, Wnt act, Yeast UUG start, esBAF inh
O=C(NCc1cccc2ccccc12)c1cccs1 in the list: -2, 51, 4, 22, -3, 55*
C/C(=N\NC(=O)c1cc2c(s1)CCC(C)C2)c1ccc[nH]1 (stereo unspecified) in the list: 0, 104*, 8, u, -20, 28
CO[C@H]1CN(C)C(=O)c2ccc(NS(=O)(=O)c3ccccc3Cl)cc2OC[C@H](C)NC[C@H]1C in the list: 1, x, -5[16.7 µM], x, -1, 3

Further entries follow:
# | Compound | PglD inh | MITF TRPM1 HTS | miR-122 sensor | Wnt act | Yeast UUG start | esBAF inh
21 | CO[C@H]1CN(C)C(=O)c2cc(NC(C)=O)ccc2OC[C@H](C)N(Cc2cc(F)ccc2F)C[C@H]1C | -1 | x | -12[16.7 µM] | x | -8 | -2
22 | CCn1c(=N)n(CC(=O)c2ccc(Br)s2)c2ccccc21 | -1 | 34 | 10 | -11 | -8 | 59*
23 | COc1ccc(C(=O)Nc2nnc(SCC(=O)Nc3ccc(NC(C)=O)cc3)s2)c(OC)c1 | 2 | 52 | -3 | 36* | -9 | 37
24 | COc1ccccc1NC(=O)c1cnc(SCC(=O)NCC2CCCO2)n(C)c1=O (stereo unspecified) | -2 | -68 | -2 | 32* | 3 | 1
25 | Cc1ccc(Nc2nnc(SCC(=O)NCC3CCCO3)s2)cc1C (stereo unspecified) | -3 | 38 | -8 | 9 | -21 | 47*
26 | COc1ccccc1-n1nnnc1SCC(=O)NCC1CCCO1 (stereo unspecified) | x | 8 | x | 3 | x | x
27 | COc1ccccc1C(=O)Nc1nnc(SCC(=O)NCC2CCCO2)s1 (stereo unspecified) | -9 | u | x | 34* | -12 | 5
28 | CCCNC(=O)C[C@H]1C[C@H]2c3cc(NS(C)(=O)=O)ccc3O[C@H]2[C@H](CO)O1 | -3 | x | 0[16.7 µM] | x | -13 | -2
29 | O=[N+]([O-])c1cccc2ccc(/C=C/c3ccc(Cl)cc3)nc12 | x | 13 | x | 9 | x | x
30 | CCOc1cc(/C=C/c2ccc3cccc([N+](=O)[O-])c3n2)cc(Cl)c1O | x | -4 | 113* | x | x | 0
31 | COc1ccc(/C=C2\SC(=O)N(CCNC(=O)C3CC4C=CC3C4)C2=O)cc1 (stereo unspecified) | x | 136* | x | -1 | x | x
32 | COc1ccc(S(=O)(=O)N(C)C[C@@H]2OCCCC[C@@H](C)Oc3ccc(NC(=O)Nc4ccccc4)cc3C(=O)N([C@@H](C)CO)C[C@@H]2C)cc1 | 1 | x | 11[16.7 µM] | x | 11 | -1
33 | COCCNC(=S)N/N=C1\CC(C)CC(C)(C)C1 (stereo unspecified) | -15 | 2 | -1 | 34* | -32 | -4
34 | CC(C)c1ccc(/C=N/NC(=O)C2CCCC2)cc1 | -2 | 140* | -6 | 27 | -6 | x
35 | CC(C)(C)c1ccc(/C=N/NC(=O)C2CCCC2)cc1 | -6 | 32 | 4 | 3 | 20 | 55*
36 | C[C@H]1CCCCO[C@H](CN(C)S(=O)(=O)c2cccs2)[C@@H](C)CN([C@@H](C)CO)C(=O)c2cc(NS(C)(=O)=O)ccc2O1 | 5 | x | 13[16.7 µM] | x | -23 | 2
37 | CN1C(=O)c2cc(NC(=O)c3cccs3)ccc2OC[C@H]2O[C@@H](CC(=O)N3CCCCC3)CC[C@H]21 | 0 | x | -37[16.7 µM] | x | x | 2
38 | Cc1ccc(-c2cc(C(=O)Nc3cc(C)ccc3C)[nH]n2)c(O)c1 | -3 | 37 | -3 | 17 | -11 | 31
39 | O=C(Nc1cccnc1)c1cc(-c2cc(Cl)ccc2O)n[nH]1 | x | u | x | 38* | x | x
40 | Cc1ccc(NC(=O)c2cc(-c3ccc(C)c(C)c3O)n[nH]2)cc1C | 5 | 5 | -9 | 0 | -14 | -10
41 | Cc1cccc(NC(=O)c2cc(-c3ccc(C)c(C)c3O)n[nH]2)c1 | -9 | 51 | 3 | 16 | -16 | 43*
42 | Cc1ccc(C)c(NC(=O)c2cc(-c3ccccc3O)n[nH]2)c1 | 3 | 56 | -10 | 5 | -16 | 65*
43 | COc1ccc(OC)c(NC(=O)c2cc(-c3cc(C)ccc3O)n[nH]2)c1 | -2 | 2 | x | 3 | -19 | 0
44 | Cc1ccc(O)c(-c2cc(C(=O)Nc3cccnc3)[nH]n2)c1 | -3 | 215* | -1 | 60* | -11 | 87*
45 | CCNC(=O)C[C@H]1CC[C@H]2[C@@H](COC[C@@H](O)CN2C(=O)Nc2ccc(Cl)c(Cl)c2)O1 | 2 | x | 9[16.7 µM] | x | -1 | 5
